# Ab-14 heavy chain CDR variants: yeast mating affinities

Source: Li et al. 2023 (doi:10.1038/s41467-023-39022-2), MIT Lincoln Laboratory and A-Alpha Bio; data file from the FLAb repository.

Target: peptide PDVDLGDISGINAS, taken from heptad repeat 2 (HR2) of SARS-CoV-2 spike.

Parent: Ab-14, a human scFv built as VH, the linker GGGGSGGGGSGGGGS, VL. Only the CDRs of the heavy chain vary.
VH: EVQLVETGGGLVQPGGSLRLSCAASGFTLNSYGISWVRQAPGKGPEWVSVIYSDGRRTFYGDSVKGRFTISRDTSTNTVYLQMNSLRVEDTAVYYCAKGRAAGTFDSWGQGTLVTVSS
VL: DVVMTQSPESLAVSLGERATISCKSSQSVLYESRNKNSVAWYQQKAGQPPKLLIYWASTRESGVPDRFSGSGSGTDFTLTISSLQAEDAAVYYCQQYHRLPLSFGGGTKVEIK

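The starting antibody came from a phage panning campaign against this peptide. The variants were designed computationally from a first round of random CDR variants and then made and measured. Their group label is 14H_En_Gibbs (En: ensemble of fine-tuned language models; Gibbs: Gibbs sampling). In AlphaSeq, yeast of one mating type display the scFv and yeast of the other type display the target. Mating (16 h, 30 °C) was followed by selection of diploids and sequencing of their barcodes. Each replicate has its own calibration line, from reference interactions of the BCL2 family. There are six technical replicates.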

The parent's heavy chain CDRs are GFTLNSYGIS, VIYSDGRRTFYGDSVK, GRAAGTFDS; each variant's own CDRs replace them letter for letter.
Numbers give log10(Kd / nM), so 0 is 1 nM and 3 is 1 µM. Smaller is tighter.
Averages over replicates are reported, and they cover detected replicates only.
"ND" means that the variant was in the library but no mating with the target was seen in that replicate; the authors take this as a sign of poor binding, and no number exists.
Of ten entries with the parent sequence, four were seen in most replicates (averages 0.34 to 2.37), three in one and three in none, so single entries are noisy.

| # | CDR-H1 | CDR-H2 | CDR-H3 | log10 Kd, replicates | log10 Kd (nM), mean | control signals |
|---|---|---|---|---|---|---|
| 1 | GFNLEEYGIS | VIYADGFRASYQNKVK | GQDGSVMLD | ND ND ND ND ND ND | ND | 0/18 |
| 2 | GQSLDEYGIS | VIYADGSRTAYAKSVK | GLGGFVNIM | ND ND ND ND ND ND | ND | 0/18 |
| 3 | GKDIEEYGIS | VIYADGMRQAYLDKVK | GNNGSSGLF | -0.48 ND ND ND ND ND | -0.48 | 0/18 |
| 4 | GFDLAEYGVS | VIYADGKRTEYSDHVK | GENAGFNDL | ND ND ND ND ND ND | ND | 0/18 |
| 5 | GFGLNEYGIS | VIYADGVRTAYLQNVK | GIVTGFDQY | ND ND ND ND ND ND | ND | 0/18 |
| 6 | GFSLDEFGIS | VIYADGMRTAYSQDVK | GQHVGFTVS | ND ND ND ND ND ND | ND | 0/18 |
| 7 | GKLLDEYGIS | VIYADGMRMVYTDSVK | GNLTDTLLV | ND ND ND ND ND ND | ND | 0/18 |
| 8 | GFDLENQGVS | VIYADGKRAAYSDNVK | GYSTGFIDV | ND ND ND ND ND ND | ND | 0/18 |
| 9 | GQDLNEYGIS | VIYADGLRTAYSENVK | GNISQFDDG | ND ND ND ND ND ND | ND | 1/18 (2.57) |
| 10 | GFNLNEVGIS | VIYADGLRSAYVDAVK | GGVVDVDFV | ND ND ND ND ND ND | ND | 1/18 (1.80) |
| 11 | GFNLDEYGIS | VIYADGTRRYYADSVK | GDYVVVNSI | ND ND ND ND ND ND | ND | 0/18 |
| 12 | GEDLEEYGIS | VIYADGMRQYYVNSVK | GTSNDFDML | ND ND ND ND ND 3.20 | 3.20 | 1/18 (2.02) |
| 13 | GFDLNEYGIS | VIYADGIRTAYSDQVK | WMDGIVILF | ND ND ND ND ND ND | ND | 0/18 |
| 14 | GFNLDEYGIS | VIYADGQRTYYTQKVK | GGIQDGNMG | ND ND ND ND ND ND | ND | 0/18 |
| 15 | GFGLDEYGIS | VIYADGVRRSYVDNVK | GFDGEKSIV | ND ND ND ND ND ND | ND | 0/18 |
| 16 | KFDIEEYGIS | VIYADGKRTSYSNAVK | GNQGRTFNT | ND ND ND ND ND ND | ND | 0/18 |
| 17 | GKDIEEYGIS | VIYADGMRQAYADSVK | GQVAGTGKF | ND ND ND ND ND ND | ND | 1/18 (2.31) |
| 18 | GEDLQEYGIS | VIYADGFRQSYSEKVK | GQHAGFLVK | ND ND 1.08 ND ND ND | 1.08 | 0/18 |
| 19 | GADIEEYGIS | VIYADGVRKYYVNSFK | GEMAGTFTN | ND ND ND 1.67 ND ND | 1.67 | 0/18 |
| 20 | GFDLNEYGIS | VIYADGSRQMYADNVK | GVMGIMKEV | 1.20 3.13 1.70 ND 1.67 2.32 | 2.00 | 0/18 |
| 21 | GFDFQEYGIS | VIYADGMRTNASDDVK | GNIGATFDD | ND ND ND ND 2.73 ND | 2.73 | 1/18 (2.04) |
| 22 | GFDVDEYGIS | VIYADGHRKSYAASVK | GSVVGVDLV | ND ND ND ND ND ND | ND | 0/18 |
| 23 | GQDLNEYGIS | VIYADGLRTAYLQNVK | GVNAGFDQY | ND ND ND ND ND ND | ND | 0/18 |
| 24 | GFDIEEYGIS | VIYADGIRQAYKDKFK | GWNDGTFSV | 1.71 ND ND ND ND ND | 1.71 | 0/18 |
| 25 | GYDIQDYGIS | VIYADGVRVAYHDSVK | GQTAGFFLL | ND ND ND ND ND ND | ND | 0/18 |
| 26 | GFDINEYGVS | VIYADGMRTAYRDSVK | GEGKWIVLI | ND ND ND ND ND ND | ND | 0/18 |
| 27 | GFNLDEYGIS | VIYADGKRTRYANDVK | GGYGGIMLS | ND ND ND ND ND ND | ND | 0/18 |
| 28 | GFDLVEYGIH | VIYADGIRTVVSNDVK | GNVAGTIDV | 0.08 -0.04 -0.56 -1.28 -1.13 0.67 | -0.38 | 0/18 |
| 29 | GFDLQDYGIS | VIYADGVRYAFQNSVK | GQIAGTFNS | ND ND ND ND ND ND | ND | 0/18 |
| 30 | GFDLEEYGIS | VIYADGMRQYAIDNVK | GLISGKGKT | ND ND ND ND ND ND | ND | 0/18 |
| 31 | GFHLDEFGIS | VIYADGLRSSYADDVK | GEMTGGFVV | ND ND ND ND ND ND | ND | 0/18 |
| 32 | GDDLQEYGIS | VIYADGLRTAYGNKVK | GGSNGRITV | ND ND ND ND ND ND | ND | 0/18 |
| 33 | GEDLLEYGIS | VIYADGSRVAYTNAVK | GNLAGAFDL | ND ND ND ND ND ND | ND | 0/18 |
| 34 | GKDIDEYGIS | VIYADGRRTFVIDSVK | GINSDFVLA | ND ND ND ND ND ND | ND | 0/18 |
| 35 | GFDINEYGVS | VIYADGMRTAYTDSVK | GKGAWIALV | ND ND ND ND ND ND | ND | 0/18 |
| 36 | GFDLEDMGVS | VIYADGIRFAYHQKVK | GQAAGTFDL | 2.16 -0.01 0.24 ND 0.29 0.74 | 0.68 | 0/18 |
| 37 | GFNLNEYGIS | VMYADGSRRVYQDKVK | GFQSGTFDT | 1.23 0.87 0.75 2.14 1.27 2.12 | 1.40 | 0/18 |
| 38 | GFDLVEYGIS | VIYADGQRTAYADTVK | GHHGGIFFM | ND ND ND ND ND ND | ND | 0/18 |
| 39 | GFNLDEYGIS | VIYADGQRTYYAEAVK | GSNDSGITV | ND ND ND ND ND ND | ND | 0/18 |
| 40 | GYDLQDYGIS | VIYADGVRVFYHQSVK | GQLAGIFLL | ND ND ND ND ND ND | ND | 0/18 |
| 41 | GYDLDQYGIS | VIYADGKRSYYADSVK | GHEGGILYV | ND ND ND 2.92 ND ND | 2.92 | 0/18 |
| 42 | GFDIEEYGIS | VIYADGRRVSYSNKVK | GQSGMIGNY | ND ND ND ND ND ND | ND | 0/18 |
| 43 | GFNLDEYGIS | VIYADGVRTFYSNSVK | GYGGIFMEG | ND ND ND ND ND ND | ND | 0/18 |
| 44 | GFDVEDYGIS | VIYADGRQQQYAQKFK | GTIAGTFVD | ND ND ND ND ND ND | ND | 1/18 (0.40) |
| 45 | GFNLKECGIS | VIYADGRRQMYANSVK | GEIGGTFLM | ND ND ND ND ND ND | ND | 0/18 |
| 46 | GFDLDEYGIS | VIYADGVRMAYTDSVK | GNWSGRDML | ND ND ND ND ND 2.12 | 2.12 | 0/18 |
| 47 | GFDLNEYGIS | VIYADGIRTAYSDQVK | GMDGIVILF | ND ND ND ND ND ND | ND | 0/18 |
| 48 | GMDIDEYGIS | VIYADGSRVFYVQDVK | GTLDVVGDV | ND ND ND ND ND ND | ND | 0/18 |
| 49 | GFDLNEYGIS | VIYADGKRMAYANKVK | GLMAGTMID | ND ND ND ND ND ND | ND | 0/18 |

Repeated from above, the 2 best binders with a signal in all replicates:

| CDR-H1 | CDR-H2 | CDR-H3 | log10 Kd, replicates | log10 Kd (nM), mean | control signals |
|---|---|---|---|---|---|
| GFDLVEYGIH | VIYADGIRTVVSNDVK | GNVAGTIDV | 0.08 -0.04 -0.56 -1.28 -1.13 0.67 | -0.38 | 0/18 |
| GFNLNEYGIS | VMYADGSRRVYQDKVK | GFQSGTFDT | 1.23 0.87 0.75 2.14 1.27 2.12 | 1.40 | 0/18 |

The authors' rule: three or more of the six replicates give a measured affinity, fewer mean a poor binder.
A sequence measured in both rounds can read differently, since the two assays cover different ranges.
Three control strains display no target. For all heavy chain designs, 1% of the pairings with them gave a signal, with a median of 2.08 and one signal in twenty below 0.84, so weak values seen in few replicates may be background. For each scFv, signals with the empty controls are counted beside the result, with their mean in brackets.